Experimental data as given in patent US20240217966A1, “PHARMACEUTICAL COMPOSITION CONTAINING GLP-1 RECEPTOR AGONIST HAVING FUSED RING” (Shionogi & Co., Ltd., priority 2021, published 2024).

Sequences of proteins named here, by UniProt entry; tags and fusion partners are left off. Residues count along the entry.
UniProt P43220, 24-463 limits assumed: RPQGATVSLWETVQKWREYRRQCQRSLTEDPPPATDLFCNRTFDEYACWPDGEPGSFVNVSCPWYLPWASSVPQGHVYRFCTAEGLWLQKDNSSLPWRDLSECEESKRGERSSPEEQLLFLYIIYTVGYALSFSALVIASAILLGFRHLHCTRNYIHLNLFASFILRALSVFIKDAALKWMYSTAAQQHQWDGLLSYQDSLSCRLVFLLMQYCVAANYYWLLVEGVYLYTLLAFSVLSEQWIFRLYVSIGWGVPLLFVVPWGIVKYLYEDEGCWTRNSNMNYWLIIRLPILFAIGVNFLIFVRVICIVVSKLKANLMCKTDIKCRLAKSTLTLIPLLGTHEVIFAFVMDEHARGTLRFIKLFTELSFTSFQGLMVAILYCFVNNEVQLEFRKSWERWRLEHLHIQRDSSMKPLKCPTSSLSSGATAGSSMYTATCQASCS

Target: Human GLP-1 receptor (Homo sapiens, UniProt P43220)
Experiment: Measurement of GLP-1 receptor agonist activity (cAMP assay)
Format: cell-based
Conditions: hGLP-1R/CHO-K1 cells

EC50 (cAMP increase, 37° C. 1 hour): 0.089 µM
Emax(%) (cAMP, 100% = human GLP-1 (7-36) at 2 nM, 0% = DMSO only): 119%
Compound: O=C(O)c1cc(C2CC2)c2nc(CN3CCc4cc(C(F)(F)F)c(OCc5ccc(Cl)cc5F)cc4C3)n(C[C@@H]3CCO3)c2c1
